IC50 data for five molecules are collected here from patent US9617242B2, “Histone demethylase inhibitors” (priority 2012, dated 2017).

Amino acid sequences for entries named in this document (tags omitted). Residues count along the entry.
UniProt Q9H3R0, 2-372: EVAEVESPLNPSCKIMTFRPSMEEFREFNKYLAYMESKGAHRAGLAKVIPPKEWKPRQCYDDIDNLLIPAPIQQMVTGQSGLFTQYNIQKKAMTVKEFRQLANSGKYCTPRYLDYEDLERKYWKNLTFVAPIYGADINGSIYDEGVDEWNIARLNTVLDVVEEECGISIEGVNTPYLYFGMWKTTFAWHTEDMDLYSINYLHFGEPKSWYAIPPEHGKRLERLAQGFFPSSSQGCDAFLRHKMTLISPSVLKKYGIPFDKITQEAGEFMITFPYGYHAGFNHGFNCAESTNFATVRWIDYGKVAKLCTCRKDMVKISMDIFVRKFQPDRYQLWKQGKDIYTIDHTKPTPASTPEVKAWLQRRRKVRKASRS
UniProt Q9UGL1, 2-751: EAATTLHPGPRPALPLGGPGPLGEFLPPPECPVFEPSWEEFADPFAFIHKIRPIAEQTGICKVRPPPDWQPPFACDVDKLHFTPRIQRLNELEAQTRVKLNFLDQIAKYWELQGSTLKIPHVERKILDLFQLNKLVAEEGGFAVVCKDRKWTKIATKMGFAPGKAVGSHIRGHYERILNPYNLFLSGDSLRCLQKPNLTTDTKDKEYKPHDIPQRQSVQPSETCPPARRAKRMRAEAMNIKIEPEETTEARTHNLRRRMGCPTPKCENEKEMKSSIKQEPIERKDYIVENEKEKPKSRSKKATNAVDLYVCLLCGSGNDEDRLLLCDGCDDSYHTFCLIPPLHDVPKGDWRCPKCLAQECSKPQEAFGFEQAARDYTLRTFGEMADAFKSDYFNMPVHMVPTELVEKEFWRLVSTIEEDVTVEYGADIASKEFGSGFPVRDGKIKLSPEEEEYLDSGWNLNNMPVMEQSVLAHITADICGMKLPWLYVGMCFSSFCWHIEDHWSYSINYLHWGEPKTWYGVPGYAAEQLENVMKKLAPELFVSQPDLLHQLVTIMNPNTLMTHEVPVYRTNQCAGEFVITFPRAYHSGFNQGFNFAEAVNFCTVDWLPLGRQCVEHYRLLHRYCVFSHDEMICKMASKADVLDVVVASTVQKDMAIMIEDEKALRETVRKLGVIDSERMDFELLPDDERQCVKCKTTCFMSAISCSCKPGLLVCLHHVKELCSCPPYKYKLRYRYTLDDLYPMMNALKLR
UniProt P29375, 1-1090: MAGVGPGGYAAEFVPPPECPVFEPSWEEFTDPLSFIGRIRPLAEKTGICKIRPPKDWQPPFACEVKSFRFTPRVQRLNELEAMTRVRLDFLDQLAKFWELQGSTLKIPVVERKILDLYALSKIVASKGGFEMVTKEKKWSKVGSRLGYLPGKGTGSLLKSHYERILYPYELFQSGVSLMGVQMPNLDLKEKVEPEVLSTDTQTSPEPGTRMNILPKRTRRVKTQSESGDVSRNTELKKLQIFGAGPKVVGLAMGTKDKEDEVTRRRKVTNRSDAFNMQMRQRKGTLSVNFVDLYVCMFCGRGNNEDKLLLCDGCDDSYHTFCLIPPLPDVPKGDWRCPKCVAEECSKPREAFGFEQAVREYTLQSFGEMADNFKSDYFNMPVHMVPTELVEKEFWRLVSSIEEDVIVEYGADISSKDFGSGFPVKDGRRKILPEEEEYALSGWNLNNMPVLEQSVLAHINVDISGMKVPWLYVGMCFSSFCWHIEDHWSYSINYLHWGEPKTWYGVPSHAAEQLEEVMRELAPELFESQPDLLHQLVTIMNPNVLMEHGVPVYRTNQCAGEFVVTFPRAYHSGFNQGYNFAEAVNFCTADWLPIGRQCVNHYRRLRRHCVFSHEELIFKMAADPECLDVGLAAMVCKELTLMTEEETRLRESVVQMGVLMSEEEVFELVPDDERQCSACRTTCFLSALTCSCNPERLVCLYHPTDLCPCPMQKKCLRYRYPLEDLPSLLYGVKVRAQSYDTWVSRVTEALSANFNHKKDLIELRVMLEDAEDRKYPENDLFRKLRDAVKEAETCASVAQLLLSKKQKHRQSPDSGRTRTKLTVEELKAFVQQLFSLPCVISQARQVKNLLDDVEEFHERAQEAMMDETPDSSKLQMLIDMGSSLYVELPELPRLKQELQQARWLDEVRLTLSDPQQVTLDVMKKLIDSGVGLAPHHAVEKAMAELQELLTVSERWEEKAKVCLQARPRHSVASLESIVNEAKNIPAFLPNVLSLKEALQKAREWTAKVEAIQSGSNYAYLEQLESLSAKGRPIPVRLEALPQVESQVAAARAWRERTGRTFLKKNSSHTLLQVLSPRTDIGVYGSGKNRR

One may read the IC50 as the point on the concentration scale where inhibition reaches its midpoint.

Holding throughout (assay type): biochemical
One assay has as its target JMJD2C (Homo sapiens (Human), UniProt Q9H3R0). Briefly: JMJD2C in vitro enzyme inhibition assay (TR-FRET). (TR-FRET usually uses a lanthanide donor and a delayed reading to cut background.)
Another assay has as its target Jarid1B (Homo sapiens (Human), UniProt Q9UGL1). Briefly: Jarid1B in vitro enzyme inhibition assay (TR-FRET).
The target of another assay is Jarid1A (Homo sapiens (Human), UniProt P29375). Briefly: Jarid1A in vitro enzyme inhibition assay (TR-FRET).

Consider `O=C(O)c1ccncc1Nc1nn([C@H]2CCNC2)c2ccc(F)cc12` [Example 60, 3-({5-fluoro-1-[(3S)-pyrrolidin-3-yl]-1H-indazol-3-yl}amino)pyridine-4-carboxylic acid], for which the IC50 at JMJD2C, at Jarid1B and on Jarid1A was under 100 nM each time.
For the molecule `O=C(O)c1ccncc1Nc1nn([C@@H]2CCNC2)c2ccc(F)cc12` [Example 61, 3-({5-fluoro-1-[(3R)-pyrrolidin-3-yl]-1H-indazol-3-yl}amino)pyridine-4-carboxylic], the IC50 against JMJD2C, on Jarid1B and at Jarid1A was under 100 nM each time.
As to `O=C(O)c1ccncc1Nc1nn(C2CCOC2)c2c1CCCC2` (centres unmarked) [Example 65, 3-{[1-(tetrahydrofuran-3-yl)-4,5,6,7-tetrahydro-1H-indazol-3-yl]amino}pyridine-4-carboxylic acid], the IC50 on Jarid1B and on Jarid1A was under 100 nM throughout.
For `Cn1nc(Nc2cnccc2C(=O)O)c2ccc(F)cc21` [Example 6, 3-[(6-fluoro-1-methyl-1H-indazol-3-yl)amino]pyridine-4-carboxylic acid], the IC50 at JMJD2C, on Jarid1B and against Jarid1A was under 100 nM in each case.
With `Cc1ccc2c(c1)c(Nc1cnccc1C(=O)O)nn2C` [Example 12, 3-[(1,5-dimethyl-1H-indazol-3-yl)amino]pyridine-4-carboxylic acid], the half-maximal inhibitory concentration (IC50) at JMJD2C, against Jarid1B and on Jarid1A was under 100 nM in each case.
